Assay results reported in article PMC9924091 (Journal of Medicinal Chemistry, 2023).

Test system: SARS-CoV-2 virus (Victoria strain) in VeroE6 cells
Format: cell-based

CSCC[C@@H](C#N)NC(=O)[C@@H]1[C@@H]2[C@H](CN1C(=O)[C@@H](NC(=O)C(F)(F)F)C(C)(C)C)C2(C)C
fold more efficient inhibition of SARS-CoV-2 progression in infected VeroE6 cells than alkyne 13: ~2 fold
